System: Escherichia coli
Assay: Antibacterial activity against Escherichia coli 319 assessed as growth inhibition after 24 hr by agar dilution method
Assay type: functional

**Q.** Which MIC does the source give for GENTAMICIN here?
**A.** Its MIC is 0.5 µg/mL.
